Assay outcomes deposited in PubChem by Broad Institute.
PglD DTNB: C. jejuni PglD acetyltransferase inhibitors, primary screen, biochemical, DTNB colorimetric, single point. UDP-N-acetylbacillosamine N-acetyltransferase PglD (Campylobacter jejuni). purified PglD enzyme, DTNB colorimetric CoA detection. inhibition, % at 12.5 µM. hit rate 0.098% among 360,000; in the data active = inhibition above about 16%, passing the limit was not always enough
UUG fidelity: modulators of yeast start codon fidelity, primary screen, whole organism, S. cerevisiae, single point, plate reader. S. cerevisiae UUG-firefly luciferase reporter, luminescence/redox ratio. activity score, % at 18.7 µM. hit rate 0.13% among 350,000;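 active = replicate mean at a twofold rise or more, about +100% in these data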;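 also: firefly luciferase made from a UUG start codon reports start codon fidelity; reporter light over untreated wells divided by growth signal over untreated wells; some hits fall short of that in this replicate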
E-sel inducer: E-selectin induction in HUVECs, primary screen, imaging, HUVEC, immunofluorescence imaging, single point. P16581. normalized: neutral wells 0, TNF-alpha wells 100. activation, % at 7.58 µM. hit rate 0.37% among 260,000. AID 686992, 2013;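 active = mean E-selectin-positive cell signal at least 10% of the positive control, reached in at least 60% of replicates, without over 20% cell loss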
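Test system – human umbilical vein endothelial cells (HUVEC), E-selectin induction · Input – 3,000 HUVEC seeded per well · Buffer or medium – EGM-2, gelatin · Compound dosing – single-point compound dose · Detection – immunofluorescence imaging · Measure – percent E-selectin-positive cells · Controls – TNF-alpha high, DMSO low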
esBAF inh: Bmi1 luciferase reporter increase in mESCs, primary screen, esBAF inhibitor project, mouse ES cells, Bmi1 luciferase knock-in, single point; reporter increase, % at 12.5 µM; AID 602393, 2012; 24 h; 100% = twice the neutral-well signal; hit rate 2% among 350,000; in the data active = activation above about 40%;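 also: a rise in the Bmi1 reporter signal indicates esBAF inhibition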
PGC1a acetyl inh: inhibitors of PGC1a acetylation signal, primary screen, cell-based, U2OS, AlphaScreen, inhibitor mode; AlphaScreen anti-acetyl-lysine; with virally co-expressed GCN5 acetyltransferase; inhibition, % at 15.6 µM; hit rate 0.17% among 350,000; AID 651687, 2012;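 active = every replicate shows inhibition of at least 40%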
Statin myotox sup: suppressors of statin myotoxicity in C2C12 myotubes, primary screen, cell-based, single point, plate reader. C2C12 myotubes + simvastatin, ATP luminescence, 48 h; scaled: DMSO 0, geranylgeraniol control 100. rescue of ATP level, % at 7.49 µM. hit rate 0.78% among 330,000. AID 602340, 2012;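 active = mean ATP rescue above about 67%, or every replicate alone reaching that limit, limit read from the data, passing the limit was not always enough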;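 also: myotubes were challenged with 10 µM simvastatin during compound exposure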
Numbers stand for hits; – = inactive; · = no result. This is a sample that favours compounds with a hit; in the whole collection about 2.8% have one here.

SMILES	PglD DTNB	UUG fidelity	E-sel inducer	esBAF inh	PGC1a acetyl inh	Statin myotox sup
N#C[C@@H]1[C@H](c2ccccc2-c2cccc(F)c2)[C@H](CO)N1C(=O)Cc1cccnc1	·	·	–	·	–	·
CCOc1cc(N2CCOCC2)c(OCC)cc1NC(=O)c1ccc(S(=O)(=O)N2CC(C)OC(C)C2)cc1 (configuration not stated)	–	–	131.4	–	·	–
CCOc1cc(N2CCOCC2)c(OCC)cc1NC(=O)c1cc(S(=O)(=O)N2CCOCC2)ccc1Cl	–	–	·	–	–	–
CCOc1ccc(N=c2scc(-c3ccccc3)n2CCO)cc1	–	–	·	44.8	–	–
CCOc1ccc(N=c2scc(-c3ccc(OC)cc3)n2CCO)cc1	–	–	–	–	–	–
OCCn1c(-c2ccc3c(c2)OCO3)csc1=Nc1ccccc1	–	–	–	78.5	–	–
O=C(c1cnccn1)N1CC(=O)N2[C@@H](CO)[C@@H](c3ccc(C#CCC4CCCC4)cc3)[C@@H]2C1	·	·	–	·	–	·
OCC1CCCN(C(=S)Nc2ccc(Nc3ccccc3)cc2)C1 (configuration not stated)	–	–	·	46.9	–	–
C[C@@H]1CN([C@H](C)CO)C(=O)c2cc(-c3ccccc3)cnc2O[C@H]1CN(C)C(=O)c1ccccn1	–	–	–	–	–	–
N#C/C(=C/c1ccc(OC(=O)c2ccc(Br)s2)cc1)c1nc2ccccc2[nH]1	–	–	–	83.4	–	–
CCN1C(=O)NC2=C(C(=O)c3ccccc32)C1c1ccccc1F (configuration not stated)	–	–	·	–	–	119.9
CCOC(=O)C1=C(C)NC2=C(C(=O)c3ccccc32)C1c1cccc2ccccc12 (configuration not stated)	–	–	–	–	–	–
CCCC(=O)Nc1ccc2c(c1)C(=O)N(C)C[C@@H](OC)[C@@H](C)CN(Cc1ccncc1)[C@H](C)CO2	·	·	–	–	–	–
COc1ccc(/C(O)=C2/C(=O)C(=O)N(CCN3CCOCC3)C2c2ccccn2)cc1 (configuration not stated)	–	–	·	44.2	–	–
O=C1C(=O)N(Cc2cccnc2)C(c2ccccn2)/C1=C(/O)c1ccccc1 (configuration not stated)	–	–	·	–	–	134.6
C/C(=N/O)c1cccc(N2Cc3ccccc3C2)c1	–	–	–	62.7	–	–
C/C(=N\O)c1cccc(Br)c1	·	·	–	–	·	–
CCC(=O)Nc1ccc2c(c1)C(=O)N(C)C[C@H](OC)[C@H](C)CN(C(=O)CC)[C@H](C)CO2	–	·	–	–	–	–
C[C@H]1CCCCO[C@@H](CN(C)Cc2ccc(C(F)(F)F)cc2)[C@@H](C)CN([C@@H](C)CO)C(=O)c2cc(NC(=O)C3CCCCC3)ccc2O1	–	–	–	–	–	·
C[C@@H]1CCCCO[C@@H](CN(C)C(=O)Nc2ccc3c(c2)OCO3)[C@H](C)CN([C@H](C)CO)C(=O)c2cc(NC(=O)Nc3ccc(F)cc3)ccc2O1	–	–	–	–	–	·
COc1ccccc1C(=O)Nc1ccc(N2CCN(S(C)(=O)=O)CC2)cc1	–	–	·	43.6	–	–
Clc1cccc(-c2ccc(-c3nc4ccccn4c3NCc3ccccc3)cc2)c1	–	–	–	49.7	–	–
CCC(C)Sc1ccc(-c2nc3ccc(Cl)cn3c2NCc2ccccc2)cc1 (configuration not stated)	–	–	–	50.1	–	–
CCCCNc1c(-c2cccc(SC(C)CC)c2)nc2ccc(Cl)cn12 (configuration not stated)	–	–	–	–	–	–
CN(C)CC(=O)N[C@@H]1CC[C@H](CC(=O)NCc2ccccc2F)O[C@H]1CO	–	–	–	–	–	–
SMILES	PglD DTNB	UUG fidelity	E-sel inducer	esBAF inh	PGC1a acetyl inh	Statin myotox sup
CCc1ccc(C(=O)N/N=C(\C)c2cccnc2)s1	–	–	–	43.3	·	–
C/C(=N\NC(=O)c1cccs1)c1cccnc1	·	·	·	·	–	·
CCc1ccc(NC(=O)c2noc3c2CCc2ccccc2-3)cc1	–	–	–	–	–	–
Cc1ccc(NC(=O)c2noc3c2CCc2ccccc2-3)cc1	–	–	–	59.9	·	·
O=C(Cc1ccccc1)N[C@H]1CC[C@H](CC(=O)N2CCCCC2)O[C@H]1CO	–	–	–	–	–	–
O=C1Nc2ccccc2N=C(c2ccccc2)C1N(Cc1ccc(F)cc1)C(=O)c1cccnc1 (configuration not stated)	–	–	–	–	40.5	–
COc1ccc2c3c(n(C)c2c1)[C@@H](CO)N(C(=O)C1CCCC1)CC31CN(C(=O)Nc2cccc(F)c2)C1	·	·	–	·	·	·
CCC(=O)N1CC(=O)N2[C@H](CO)[C@@H](c3ccc(C#CC4CCCC4)cc3)[C@@H]2C1	·	·	–	·	–	·
N#C/C(=C\c1ccc(Cl)c([N+](=O)[O-])c1)c1ccccn1	·	·	–	·	·	·
CNc1ccc(/C=C(\C#N)c2ccccn2)cc1[N+](=O)[O-]	–	–	–	74.0	–	–
c1ccc2cc(C3OCC4(CCCC4)CO3)ccc2c1	–	–	–	71.2	–	–
O=C1CCC(c2ccc3ccccc3c2)O1 (configuration not stated)	–	–	–	–	–	–
C/C=C/c1ccc([C@H]2[C@@H](CO)N(C(=O)CC3CC3)C23CN(S(C)(=O)=O)C3)cc1	·	·	–	·	–	·
COc1ccc2nc3cc(Cl)ccc3c(Nc3cc(CN4CCCC4)c(O)c(CN4CCCC4)c3)c2n1	–	–	–	–	71.7	–
O=C(C[C@H]1C[C@H]2c3cc(NC(=O)NC4CCCC4)ccc3O[C@H]2[C@@H](CO)O1)NCc1cccnc1	·	·	–	·	·	·
Cc1ccc(S(=O)(=O)NCc2ccc3c(c2)cc(C)n3C)cc1	–	–	63.4	–	–	–
Cc1cc2cc(CNC(=O)Nc3ccc(Cl)c(Cl)c3)ccc2n1C	–	–	141.9	–	·	–
O=C(N[C@@H]1CC[C@@H](CCNC(=O)C2CC2)O[C@@H]1CO)c1ccccn1	–	–	–	–	–	–
CN1C(=O)c2cc(NC(=O)c3cncs3)ccc2OC[C@H]2O[C@@H](CC(=O)Nc3ccccc3F)CC[C@@H]21	·	·	·	–	–	–
CCN(CC)S(=O)(=O)c1ccc(N2CCOCC2)c(NS(=O)(=O)c2ccc(C)cc2)c1	·	·	–	·	·	·
Cc1ccc(S(=O)(=O)Nc2cc(S(=O)(=O)N3CCCCC3)ccc2N2CCOCC2)cc1	·	·	32.2	·	–	·
